Screening data as filed in PubChem.
SIRT5 inh – blocks human SIRT5 desuccinylation of peptide | inhibition, % at 15 µM | 330,000 compounds, 1.1% hits | Q9NXA8 | AID 652115 | Purified SirT5, succinyl-peptide AMC, trypsin-coupled fluorescence; in the data active = inhibition above about 15%
S100A4 inh HTS – blocks human S100A4 binding to myosin IIA peptide; AID 652163; 360,000 compounds, 0.14% hits; P26447; S100A4/TAMRA-MyoIIA peptide fluorescence polarization; inhibition, % at 10.7 µM;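 active = mean inhibition of at least 70% across replicates, with every replicate also reaching that level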
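Material: human S100A4 monomer with TAMRA-labelled myosin IIA peptide; buffer or medium: HEPES pH 7.2 with CaCl2, KCl, NaCl, DTT, Triton; compound dosing: one concentration per compound; schedule: 5 min incubation before reading; benchmarks: neutral control DMSO, positive control TFP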
PDI inh – blocks human protein disulfide isomerase activity; P07237; PDI insulin aggregation turbidity, A650, 90 min; inhibition, % at 10 µM; 350,000 compounds, 0.052% hits; AID 588391;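 active = mean inhibition across replicates of 30% or more, whatever share of single replicates reach that level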
ERp5 inh – inhibitors of human ERp5; Q15084; ERp5 insulin aggregation, absorbance 650 nm, 90 min; inhibition, % at 9.99 µM; 350,000 compounds, 0.05% hits; AID 651711;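 active = mean replicate inhibition above about 25%, with every replicate also reaching it, limit read from the data, passing the limit was not always enough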
UUG fidelity – modulators of yeast start codon fidelity, primary screen, whole organism, S. cerevisiae, single point, plate reader; S. cerevisiae UUG-firefly luciferase reporter, luminescence/redox ratio; activity score, % at 18.7 µM; actives 0.13% (n = 350,000);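 active means replicate mean at a twofold rise or more, about +100% in these data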;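 further: firefly luciferase made from a UUG start codon reports start codon fidelity; reporter light over untreated wells divided by growth signal over untreated wells; some hits fall short of that in this replicate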
FGF22 binding – shifts melting point of recombinant human FGF22; Q9HCT0; recombinant FGF22 thermal shift, SYPRO orange fluorescence; percent of sucrose octasulfate shift, DMSO zero; activity (Tm shift, normalised), % at 9.99 µM; 340,000 compounds, 1.5% hits; AID 651658;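 active = mean Tm shift, scaled 0 neutral to 100 positive control, at about 1.3% or above, every replicate too, limit read from the data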
* hit, by the source's call; . = no result given; ! = a repeat was not active. Compounds with a hit are over-represented: about 2.2% of the library has one in this group of screens.

(1) CCOc1ccc(CCN2C(=O)C(=O)N([C@@H](CC(C)C)CN3CCC[C@@H]3CN3C(=O)C(=O)NC[C@@H]3Cc3ccccc3)C[C@@H]2Cc2ccc(O)cc2)cc1
(2) O=C1NC[C@H](Cc2ccccc2)N(C[C@@H]2CCCN2C[C@H](Cc2ccc(O)cc2)N2C[C@H](Cc3ccc(O)cc3)N(CCc3ccccc3)C(=O)C2=O)C1=O
(3) CCOc1ccc(CCN2C(=O)C(=O)N([C@@H](CC(C)C)CN3CCC[C@H]3CN3C(=O)C(=O)NC[C@@H]3Cc3ccccc3)C[C@@H]2Cc2ccc(O)cc2)cc1
(4) CC=Cc1ccc2n(c1=O)C[C@H]1[C@H](CO)[C@@H](C(=O)Nc3ccc(-c4ccccc4)cc3)[C@@H]2N1CC (mixture of isomers)
(5) CO[C@@H]1CN(C)C(=O)c2ccc(NS(=O)(=O)c3cccc(C)c3)cc2OC[C@H](C)NC[C@@H]1C
(6) O=C(N[C@@H](Cc1ccc(O)cc1)C(=O)O)C(c1ccccc1)c1ccccc1
(7) O=C(NC(Cc1ccc(O)cc1)C(=O)O)c1ccco1 (stereo unspecified)
(8) COc1ccc(NC(=O)N(C)C[C@H]2Oc3ccc(NC(=O)C4CC4)cc3CC(=O)N([C@H](C)CO)C[C@@H]2C)cc1

compound no. | 1 | 2 | 3 | 4 | 5 | 6 | 7 | 8
ERp5 inh | 1.7 | -4.1 | -3.8 | -5.4 | -3.7 | 0.0 | 3.1 | -1.1
FGF22 binding | -0.2 | -0.4 | -0.2 | . | -0.2 | 0.0 | 43.3* | 0.2
UUG fidelity | 2.4 | . | . | . | -0.3 | -5.7 | . | 23.5
PDI inh | 53.8* | . | . | . | . | 11.4 | 0.1 | .
S100A4 inh HTS | 5.6 | -5.5 | -2.6 | 6.0 | -5.1 | 2.4 | -2.2 | 3.7
SIRT5 inh | -1.9 | 0.4 | -0.7 | -0.4 | -2.4 | . | 0.8 | 3.4

(9) COC(=O)CSc1nnc(CNC(=O)c2ccc(S(=O)(=O)N(C)C)cc2)n1C
(10) CCOC(=O)CSc1nnc(CNC(=O)c2ccc(S(=O)(=O)N(C)C)cc2)n1C
(11) COc1ccc2c3c([nH]c2c1)[C@@H](CO)N(Cc1cc(F)ccc1F)CC31CCN(C(C)=O)CC1
(12) Cc1noc(C)c1S(=O)(=O)Nc1ccc2c(c1)C(=O)N([C@@H](C)CO)C[C@H](C)[C@H](CN(C)C(=O)c1ccccc1)OCCCC[C@H](C)O2
(13) COCC#Cc1cnc2c(c1)C(=O)N([C@@H](C)CO)C[C@@H](C)[C@H](CN(C)C(=O)c1cccnc1)O2
(14) COCC#Cc1cnc2c(c1)C(=O)N([C@H](C)CO)C[C@@H](C)[C@H](CN(C)C(=O)Cc1ccccc1)O2
(15) C[C@@H]1CCCCO[C@H](CN(C)C(=O)Nc2cccc3ccccc23)[C@@H](C)CN([C@@H](C)CO)C(=O)c2cc(NS(=O)(=O)c3ccccc3)ccc2O1
(16) Cc1ccc(S(=O)(=O)Nc2ccc3c(c2)C(=O)N([C@@H](C)CO)C[C@@H](C)[C@@H](CN(C)C(=O)Nc2cccc4ccccc24)OCCCC[C@@H](C)O3)cc1

compound no. | 9 | 10 | 11 | 12 | 13 | 14 | 15 | 16
ERp5 inh | 5.3 | 0.7 | . | 3.4 | 1.7 | -4.4 | 8.4 | 2.1
FGF22 binding | 43.3* | 0.0 | 0.0 | . | 0.2 | -0.2 | 0.4 | -0.3
UUG fidelity | . | . | . | 0.9 | -4.6 | -10.2 | . | -25.0
PDI inh | 3.1 | 6.8 | . | . | . | . | . | .
S100A4 inh HTS | -2.8 | -2.9 | . | -5.7 | -6.5 | 12.5 | 5.1 | 10.3
SIRT5 inh | 1.0 | 0.1 | . | 1.9 | 16.2* | 31.4* | 15.2* | 16.6*

(17) C[C@@H]1CCCCO[C@@H](CN(C)C(=O)Nc2cccc3ccccc23)[C@H](C)CN([C@H](C)CO)C(=O)c2cc(NS(=O)(=O)c3ccccc3)ccc2O1
(18) Cc1ccc(S(=O)(=O)Nc2ccc3c(c2)C(=O)N([C@@H](C)CO)C[C@H](C)[C@H](CN(C)C(=O)Nc2cccc4ccccc24)OCCCC[C@@H](C)O3)cc1
(19) NS(=O)(=O)c1cccc(NC(=O)c2cc(=O)c3ccccc3o2)c1
(20) CN(c1ccccc1)S(=O)(=O)c1cccc(NC(=O)COc2ccccc2)c1
(21) CN(c1ccccc1)S(=O)(=O)c1cccc(NC(=O)c2cc(=O)c3ccccc3o2)c1
(22) CC(=O)CCc1ccc(OCC(=O)Nc2cccc(S(=O)(=O)N(C)c3ccccc3)c2)cc1
(23) CC(C)CCOc1ccc(C(=O)N2CCCC2C(=O)O)cc1 (stereo unspecified)
(24) CC(OC(=O)C1=Cc2ccccc2OC1)C(=O)NCC1CCCO1 (stereo unspecified)

compound no. | 17 | 18 | 19 | 20 | 21 | 22 | 23 | 24
ERp5 inh | -0.3 | -0.2 | 4.5 | 1.8 | 0.9 | -4.2 | 7.8 | 10.4
FGF22 binding | -0.4 | -0.7 | -0.2 | -0.2 | 43.4* | -0.4 | 0.3 | 1.9*
UUG fidelity | -12.9 | 23.6 | -0.3 | -15.5 | . | -6.9 | . | 23.5
PDI inh | . | . | -53.0 | 19.0 | -1.8 | 1.7 | -2.1 | -1.4
S100A4 inh HTS | -24.2 | 9.4 | -3.3 | 0.8 | 6.3 | 1.8 | -0.5 | -6.0
SIRT5 inh | 14.0 | 0.3 | -1.7 | 4.9 | -2.8 | 16.9* | 16.8* | 12.3

Arranged by heavy-atom count (largest number first): 3 of the compounds above
(18) Cc1ccc(S(=O)(=O)Nc2ccc3c(c2)C(=O)N([C@@H](C)CO)C[C@H](C)[C@H](CN(C)C(=O)Nc2cccc4ccccc24)OCCCC[C@@H](C)O3)cc1
(8) COc1ccc(NC(=O)N(C)C[C@H]2Oc3ccc(NC(=O)C4CC4)cc3CC(=O)N([C@H](C)CO)C[C@@H]2C)cc1
(7) O=C(NC(Cc1ccc(O)cc1)C(=O)O)c1ccco1 (stereo unspecified)

compound no. | 18 | 8 | 7
ERp5 inh | -0.2 | -1.1 | 3.1
FGF22 binding | -0.7 | 0.2 | 43.3*
UUG fidelity | 23.6 | 23.5 | .
PDI inh | . | . | 0.1
S100A4 inh HTS | 9.4 | 3.7 | -2.2
SIRT5 inh | 0.3 | 3.4 | 0.8

Next part.
(25) C[C@H](CO)N1C[C@H](C)[C@H](CN(C)S(C)(=O)=O)Oc2c(NC(=O)c3cnccn3)cccc2C1=O
(26) CC(=O)c1c(C)[nH]c(C(=O)N2CCN(c3ncccn3)CC2)c1C
(27) COc1cc2c(oc(=O)c3cc(C)cc(OC)c32)c2c(C3OC(C)C(O)C(C)(O)C3O)ccc(O)c12 (stereo unspecified)
(28) Cc1ccc2nc(-c3ccc(NC(=S)NC4CC(C)(C)NC(C)(C)C4)cc3)sc2c1
(29) N#C[C@H]1[C@@H](c2ccccc2-c2ccccc2)[C@@H](CO)N1c1ncc(-c2ccccc2)s1
(30) CO[C@H]1CN(C)C(=O)c2ccc(NC(C)=O)cc2OC[C@@H](C)N(C(=O)c2ccccn2)C[C@H]1C
(31) COc1ccc(NC(=O)Nc2ccc3c(c2)C(=O)N([C@@H](C)CO)C[C@@H](C)[C@@H](CN(C)C(=O)Cc2ccccc2)OCCCC[C@@H](C)O3)cc1
(32) CC(C)CC(N)c1csc(Nc2cnccn2)n1 (stereo unspecified)
(33) C[C@H]1CCCCO[C@@H](CN(C)Cc2ccccc2)[C@@H](C)CN([C@@H](C)CO)C(=O)c2cc(NC(=O)Nc3ccccc3)ccc2O1
(34) C[C@@H]1CCCCO[C@@H](CN(C)S(=O)(=O)c2ccccc2)[C@@H](C)CN([C@H](C)CO)C(=O)c2cc(NS(=O)(=O)c3ccc(F)cc3)ccc2O1
(35) C[C@@H]1CN([C@@H](C)CO)C(=O)c2cc(NS(=O)(=O)c3ccccc3)ccc2O[C@@H](C)CCCCO[C@H]1CN(C)S(=O)(=O)c1ccc(F)cc1

compound no. | 25 | 26 | 27 | 28 | 29 | 30 | 31 | 32 | 33 | 34 | 35
ERp5 inh | -5.3 | -7.4 | 1.6 | 9.4 | 1.1 | -1.8 | -2.3 | -0.2 | 4.6 | -10.0 | 7.8
FGF22 binding | -0.1 | -0.1 | -1.4 | 43.1* | 0.2 | -0.4 | -0.1 | 43.6* | -0.4 | 1.3*! | -0.2
UUG fidelity | -0.6 | -15.3 | . | -0.8 | . | 13.2 | 9.0 | -11.1 | 9.0 | 9.3 | -4.0
PDI inh | . | . | -0.6 | 4.3 | . | . | . | -20.3 | . | -2.3 | .
S100A4 inh HTS | 4.1 | -0.9 | -5.2 | -26.8 | -1.1 | 16.5 | -0.1 | -2.2 | 1.9 | -0.9 | -8.0
SIRT5 inh | 2.9 | 15.7* | 18.6* | -14.0 | 24.0* | 1.0 | 2.8 | . | 3.7 | -1.9 | 12.3
